Reference: ChEMBL document CHEMBL5370661, “Development of Fluorescent AF64394 Analogues Enables Real-Time Binding Studies for the Orphan Class A GPCR GPR3” (J Med Chem, 2023)
pEC50: −log10 of the molar value.

By UniProt entry, the sequences of proteins in these tests, tags left out. Where a name states a change or a piece, a line headed by the entry shows the natural chain unless it says otherwise.
UniProt P46089: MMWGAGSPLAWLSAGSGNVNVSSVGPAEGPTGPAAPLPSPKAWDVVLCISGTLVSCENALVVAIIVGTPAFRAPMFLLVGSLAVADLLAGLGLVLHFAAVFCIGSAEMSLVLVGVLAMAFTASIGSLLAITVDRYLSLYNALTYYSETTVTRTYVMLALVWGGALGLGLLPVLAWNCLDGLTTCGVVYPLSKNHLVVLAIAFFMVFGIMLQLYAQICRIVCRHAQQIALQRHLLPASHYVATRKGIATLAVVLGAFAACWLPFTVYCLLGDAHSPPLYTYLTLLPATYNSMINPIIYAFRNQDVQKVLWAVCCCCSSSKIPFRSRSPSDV

Target: G-protein coupled receptor 3 (Homo sapiens, UniProt P46089)

Q: How did the pEC50 turn out when `c1ccc2c(c1)[I+]c1ccccc1-2` [DIPHENYLENEIODONIUM CHLORIDE] was run?
A: Its pEC50 is 6.00.
